This note sets out measurements from BindingDB's records for doi:10.1023/a:1006986824213 (1999).

The chains behind the UniProt entries cited, without tags or fusion partners.
UniProt P23977, whole entry: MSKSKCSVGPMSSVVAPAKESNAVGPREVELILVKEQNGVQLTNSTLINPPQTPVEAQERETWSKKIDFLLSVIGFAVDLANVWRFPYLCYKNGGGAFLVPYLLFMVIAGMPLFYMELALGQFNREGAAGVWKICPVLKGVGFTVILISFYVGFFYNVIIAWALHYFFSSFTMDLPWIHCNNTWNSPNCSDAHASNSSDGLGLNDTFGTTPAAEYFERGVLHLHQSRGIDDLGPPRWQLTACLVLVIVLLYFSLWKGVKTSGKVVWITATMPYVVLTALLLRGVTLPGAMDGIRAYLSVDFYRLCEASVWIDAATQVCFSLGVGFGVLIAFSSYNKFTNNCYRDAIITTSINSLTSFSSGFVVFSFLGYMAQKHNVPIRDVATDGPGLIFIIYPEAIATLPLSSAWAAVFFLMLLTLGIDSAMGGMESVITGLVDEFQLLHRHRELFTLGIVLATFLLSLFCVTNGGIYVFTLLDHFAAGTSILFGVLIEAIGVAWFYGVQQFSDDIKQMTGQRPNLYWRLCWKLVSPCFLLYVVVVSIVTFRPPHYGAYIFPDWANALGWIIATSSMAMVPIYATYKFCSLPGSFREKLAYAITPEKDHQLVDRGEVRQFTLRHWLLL
UniProt P61169, whole entry: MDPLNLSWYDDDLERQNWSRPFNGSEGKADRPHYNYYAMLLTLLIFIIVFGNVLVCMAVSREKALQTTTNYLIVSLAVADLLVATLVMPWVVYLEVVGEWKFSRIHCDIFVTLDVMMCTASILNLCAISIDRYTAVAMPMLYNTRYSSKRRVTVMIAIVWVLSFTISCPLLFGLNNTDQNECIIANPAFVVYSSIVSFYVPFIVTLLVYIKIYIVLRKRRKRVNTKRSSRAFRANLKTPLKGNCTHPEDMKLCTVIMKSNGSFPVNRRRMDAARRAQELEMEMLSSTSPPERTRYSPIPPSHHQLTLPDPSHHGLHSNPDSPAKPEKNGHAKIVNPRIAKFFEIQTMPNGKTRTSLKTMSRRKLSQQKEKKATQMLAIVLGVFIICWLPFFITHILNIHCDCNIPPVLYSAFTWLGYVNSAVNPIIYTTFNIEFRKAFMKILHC

Assay [1] concerns the target Norepinephrine transporter (Rattus norvegicus, UniProt Q9JIA2).
In assay [2] the target is Sodium-dependent dopamine transporter (Rattus norvegicus, UniProt P23977).
The next assay has as its target D(2) dopamine receptor (Rattus norvegicus, UniProt P61169).

pKi: −log10 of the molar value.

The term pKi denotes the negative decadic logarithm of the Ki, by convention in mol/L. A lower pKi goes with a high Ki. Consider `COc1ccc(C(CN(C)C)C2(O)CCCCC2)cc1` (stereo not drawn) [NSC_62923], for which the negative-log Ki (pKi) in assay [1] is 6.19; in assay [2], 5.55.
For `CCc1nn(CCCN2CCN(c3cccc(Cl)c3)CC2)c(=O)n1CCOc1ccccc1` [2-{3-[4-(3-chlorophenyl)piperazin-1-yl]propyl}-5-ethyl-4-(2-phenoxyethyl)-2,4-dihydro-3H-1,2,4-triazol-3-one], the pKi at D(2) dopamine receptor is 6.74.
